Key:
[1] = test system: Rattus norvegicus; assay: Ratio of Total electrolytic excretion of sodium and potassium in urine of rats after peroral administration of 302 uM/Kg of drug; type: ADME, organism-based; conditions: in vivo, po
[2] = test system: Rattus norvegicus; assay: Ratio of Total electrolytic excretion of sodium and potassium in urine of rats after peroral administration of 30.2 uM/Kg of drug; type: ADME, organism-based; conditions: in vivo, po
[3] = test system: Rattus norvegicus; assay: Ratio of Total electrolytic excretion of sodium and potassium in urine of rats after peroral administration of 90.6 uM/Kg of drug; type: ADME, organism-based; conditions: in vivo, po
[4] = test system: Canis familiaris; assay: Ratio of Total electrolytic excretion of sodium and potassium in urine of dogs after peroral administration of 9.06 uM/Kg of drug; type: ADME, organism-based, Canis lupus familiaris; conditions: dog, in vivo, po
[5] = test system: Canis familiaris; assay: Ratio of Total electrolytic excretion of sodium and potassium in urine of dogs after peroral administration of 9.6 uM/Kg of drug; type: ADME, organism-based, Canis lupus familiaris; conditions: dog, in vivo, po
[6] = test system: Rattus norvegicus; assay: Ratio of Total electrolytic excretion of sodium and potassium in urine of rats after peroral administration of 9.06 uM/Kg of drug; type: ADME, organism-based; conditions: in vivo, po

NS(=O)(=O)c1cc(C(=O)O)c(NCc2ccco2)cc1Cl [FUROSEMIDE]
Ratio [1]: 4.8 | Ratio [2]: 2.9 | Ratio [3]: 4.1 | Ratio [4]: 5.8 | Ratio [5]: 4.4 | Ratio [6]: 2.6
